Measured values as given in patent publication US20250177399A1, “COMBINATION THERAPIES” (MIRATI THERAPEUTICS, INC., priority 2021, published 2025).
Like-named read-outs stand apart in the source and are kept apart here.

Experiments:
[1] = test system: H2122 tumors; conditions: p.o. daily, Compound 478 100 mg/kg, trametinib 1 mg/kg
Experimental: Immunocompromised nude/nude mice were inoculated in the right hind flank with cells or patient derived tumor samples harboring a KRas G12C mutation. When tumor volumes reach between 200-400 mm^3 in size, the mice were divided into four groups of 5-12 mice each. The first group was administered vehicle only. […] The fourth group was orally administered the single agent dose of the KRas G12C inhibitor in combination with the single agent dose of the MEK inhibitor at the matched schedule. […] Tumor volumes were measured using a caliper every two-three days and tumor volumes are calculated by the formula: […].
For example, twenty nude/nude mice were inoculated in the right hind limb with 5×10^6 H2122 cells.

[2] = test system: H2122 tumors; test: H2122 tumor model, Compound 478 and RO5126766 alone and in combination; format: in vivo, nude/nude mice; conditions: Study Day 21; Compound 478 100 mg/kg p.o daily, RO5126766 0.3 mg/kg p.o Q2D

For C=C(F)C(=O)N1CCN(c2nc(OC[C@@H]3CCCN3C)nc3c2CCN(c2cccc4cccc(Cl)c24)C3)C[C@@H]1CC#N [Compound 478], the “Average Tumor Volumes of H2122 Tumor Bearing Mice” value (from here on “Average Tumor Volumes”) ([1]; Study Day 3) was 282 mm^3, the “Average Tumor Volumes” value ([1]; Study Day 15) was 252 mm^3 and the “Average Tumor Volumes” value ([1]; Study Day 28) was 276 mm^3. The “Average Tumor Volumes” value [2] was 343.9594 mm^3.
